From BindingDB's records for doi:10.1021/jm00073a009 (Harvard Medical School, 1993) come the findings set out here.

The target of this assay is Dihydrofolate reductase (Pneumocystis carinii) (UniProt P16184). Put plainly: Inhibition of dihydrofolate reductase in pneumocystis carinii.

By IC50 is commonly meant the concentration that gives 50% inhibition. Low readings indicate higher potency, high ones lower potency. `COc1ccc(OC)c(-c2sc3nc(N)nc(N)c3c2C)c1` [6-(2,5-Dimethoxy-phenyl)-5-methyl-thieno[2,3-d]pyrimidine-2,4-diamine] registered an IC50 of 4.8 µM. This counts as single-digit micromolar.
Then `COc1ccc(OC)c(Cc2sc3nc(N)nc(N)c3c2C)c1` [6-(2,5-dimethoxybenzyl)-5-methylthieno[2,3-d]pyrimidine-2,4-diamine], with 14 µM.
